{"sequences": {"note": "Amino acid sequences for entries named in this document (tags omitted).", "UniProt O00482, whole entry, looked up": "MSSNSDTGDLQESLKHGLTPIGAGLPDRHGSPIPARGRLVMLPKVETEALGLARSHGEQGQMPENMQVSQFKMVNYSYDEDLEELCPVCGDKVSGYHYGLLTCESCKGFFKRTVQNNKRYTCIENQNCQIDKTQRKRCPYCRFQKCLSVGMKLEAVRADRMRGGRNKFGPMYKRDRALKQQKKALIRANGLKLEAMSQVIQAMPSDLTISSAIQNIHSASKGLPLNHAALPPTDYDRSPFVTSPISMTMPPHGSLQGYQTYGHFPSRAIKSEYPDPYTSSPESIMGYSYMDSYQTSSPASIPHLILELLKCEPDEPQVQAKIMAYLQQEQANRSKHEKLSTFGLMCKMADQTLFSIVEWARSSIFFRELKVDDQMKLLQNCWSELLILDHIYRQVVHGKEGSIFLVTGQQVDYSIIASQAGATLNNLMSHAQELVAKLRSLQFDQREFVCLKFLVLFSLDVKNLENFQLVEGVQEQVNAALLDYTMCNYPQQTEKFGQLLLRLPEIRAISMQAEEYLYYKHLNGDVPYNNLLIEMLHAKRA"}, "source": "PubChem BioAssay AID602396", "about": "(The Scripps Research Institute Molecular Screening Center, 2012)", "note": "Only a part is listed here, and it is no random draw. The source made the active and inactive calls.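 Rule for the calls: active = inhibition above the mean inhibition of all tested compounds plus 3 SD (cut at about 73% in these data); inactive = the rest.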", "data": [{"target": "Nuclear receptor subfamily 5 group A member 2 (Homo sapiens) (UniProt O00482)", "assay": "LRH-1 (NR5A2) inverse agonists, primary screen, cell-based, luminescence, HEK293T, StAR-luciferase reporter (AID 602396);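 note: 0% = DMSO wells and 100% = reporter-only cells lacking LRH-1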", "settings": "LRH-1 transfected, 24 h, at 3.6 µM, stronger effect = higher value", "values": [{"smiles": "Cc1ccc(N/C(=N/P(=O)(N2CCOCC2)N2CCOCC2)N2CCOCC2)cc1", "inhibition": "inactive: 11%"}, {"smiles": "NC(=O)c1cc([N+](=O)[O-])cc([N+](=O)[O-])c1N", "inhibition": "inactive: -15.9%"}, {"smiles": "Nc1cccc2ccc([As](=O)(O)O)cc12", "inhibition": "inactive: -16.9%"}, {"smiles": "CCN(N=Nc1nonc1N)c1nonc1N", "inhibition": "inactive: -14.2%"}, {"smiles": "CCOP(=O)(Nc1ccccc1)OCC", "inhibition": "inactive: -9.4%"}, {"smiles": "Cc1cc(SC(NC(=O)c2ccc(F)cc2)C(Cl)(Cl)Cl)ncn1", "note": "(stereo unspecified)", "inhibition": "inactive: -20.3%"}, {"smiles": "CN(C(=O)Cc1ccc(Cl)c(Cl)c1)[C@H]1CCCC[C@@H]1N1CCCC1", "inhibition": "inactive: -4.74%"}, {"smiles": "Cc1ccc(NP(=O)(Oc2ccccc2F)Oc2ccccc2F)nc1", "inhibition": "inactive: -6.69%"}, {"smiles": "CN(C)P(=O)(N(C)C)n1c(Nc2ccccc2)nnc1-c1ccccc1", "inhibition": "inactive: -38.2%"}, {"smiles": "O=P(Nc1nc2ccc(Cl)cc2s1)(c1ccccc1)c1ccccc1", "inhibition": "inactive: -12.2%"}, {"smiles": "O=C(O)c1ccccc1[As](=O)(O)O", "inhibition": "inactive: 9.68%"}, {"smiles": "CC(=O)Nc1ccc([As](=O)(O)O)cc1", "inhibition": "inactive: -3.59%"}, {"smiles": "CCCC1OP(N)(=O)OCC1CC", "note": "(stereo unspecified)", "inhibition": "inactive: -7.97%"}, {"smiles": "O=C(O)CNc1ccc([As](=O)(O)O)cc1", "inhibition": "inactive: 5.92%"}, {"smiles": "O=[N+]([O-])c1cccc(NC2=NCC(CBr)S2)c1", "note": "(stereo unspecified)", "inhibition": "inactive: 3.02%"}, {"smiles": "COC(=O)C1(C)COP(=O)(Nc2ccccc2)OC1", "note": "(stereo unspecified)", "inhibition": "inactive: -7.45%"}, {"smiles": "O=[N+]([O-])c1ncn(CCn2ncnc2[N+](=O)[O-])n1", "inhibition": "inactive: -8.2%"}, {"smiles": "CC(C)(C)C(=O)NC(Sc1ccncn1)C(Cl)(Cl)Cl", "note": "(stereo unspecified)", "inhibition": "inactive: -12.3%"}, {"smiles": "O=C(Nc1cc([As](=O)(O)O)ccc1O)c1ccccc1", "inhibition": "inactive: -6.39%"}, {"smiles": "O=P1(N(CCCl)CCCl)OCCCS1", "note": "(stereo unspecified)", "inhibition": "inactive: 0.14%"}, {"smiles": "c1cc(-c2nn[nH]n2)ccc1-c1nn[nH]n1", "inhibition": "inactive: 6.36%"}, {"smiles": "CC1CCN(C(=O)Oc2c(Cl)cc(Cl)c3cccnc23)CC1", "inhibition": "inactive: 12.2%"}, {"smiles": "CC(C)=N/N=C(\\N)N[N+](=O)[O-]", "inhibition": "inactive: -1.47%"}, {"smiles": "CC(C)c1nc(Nc2ccccc2)n(P(=O)(N(C)C)N(C)C)n1", "inhibition": "inactive: 2.97%"}, {"smiles": "CN(C)C(=O)OCCc1n(C)cc[n+]1C", "inhibition": "inactive: 10.2%"}, {"smiles": "CCN(/C(=N/P(=O)(N1CCOCC1)N1CCOCC1)N1CCOCC1)c1ccc(OC)cc1", "inhibition": "inactive: 0.68%"}, {"smiles": "Nc1ccc([As](=O)(O)c2ccc(N)cc2)cc1", "inhibition": "inactive: 5.97%"}, {"smiles": "C[N+]1=C2C=CC=CC=C2SC12C([N+](=O)[O-])=CC([N+](=O)[O-])=C[C-]2[N+](=O)[O-]", "note": "(stereo unspecified)", "inhibition": "inactive: 26.9%"}, {"smiles": "Cc1ccc(NP(=O)(Oc2ccccc2)Oc2ccccc2)nc1", "inhibition": "inactive: 4.3%"}, {"smiles": "O=[N+]([O-])c1cc([N+](=O)[O-])c(CCNc2ccccc2)c([N+](=O)[O-])c1", "inhibition": "inactive: 18.8%"}, {"smiles": "CCc1nc2c(n1)c1c(non1O)c1c2no[n+]1[O-]", "inhibition": "inactive: -0.98%"}, {"smiles": "CC(=O)N1C2C3N(C(C)=O)C1C1N(C(C)=O)C(C(N1C(C)=O)N3C(C)=O)N2C(C)=O", "inhibition": "inactive: 15.9%"}, {"smiles": "O=[N+]([O-])c1cccc2n[nH]nc12", "inhibition": "inactive: 20.7%"}, {"smiles": "COc1ccc(C2=NCC(CBr)S2)cc1", "note": "(stereo unspecified)", "inhibition": "inactive: 11.2%"}, {"smiles": "c1nnnn1CCn1cnnn1", "inhibition": "inactive: 2.72%"}, {"smiles": "O=P(Nc1nccs1)(c1ccccc1)c1ccccc1", "inhibition": "inactive: 8.62%"}, {"smiles": "CC(C)C(=O)NC(Sc1ccccc1)C(Cl)(Cl)Cl", "note": "(stereo unspecified)", "inhibition": "inactive: 5.73%"}, {"smiles": "O=C(OC1CN2CCC1CC2)c1cccc(Cl)c1", "note": "(stereo unspecified)", "inhibition": "inactive: 6.9%"}, {"smiles": "Nc1ccc([As](=O)(O)c2ccc([N+](=O)[O-])cc2)cc1", "inhibition": "inactive: -6.9%"}, {"smiles": "C(Cc1nn[nH]n1)Cc1nn[nH]n1", "inhibition": "inactive: -9.31%"}, {"smiles": "O=[As](O)(c1ccccc1)c1ccc(O)cc1", "inhibition": "inactive: 11.2%"}, {"smiles": "O=[N+]([O-])c1ncn(CCn2cnc([N+](=O)[O-])n2)n1", "inhibition": "inactive: 16.1%"}, {"smiles": "CC(=O)NC(SC(=S)N(C)C)C(Cl)(Cl)Cl", "note": "(stereo unspecified)", "inhibition": "inactive: 26.1%"}, {"smiles": "O=[N+]([O-])c1ccc(O)c(/C=N/Nc2ccc([N+](=O)[O-])cc2[N+](=O)[O-])c1", "inhibition": "inactive: 7.83%"}, {"smiles": "O=P(Nc1nc2ccccc2s1)(c1ccccc1)c1ccccc1", "inhibition": "inactive: 7.67%"}, {"smiles": "C[C@H]1OP(=O)(Oc2ccccc2)[C@H](O)[C@H](O)[C@H]1N=[N+]=[N-]", "note": "(stereo partly specified)", "inhibition": "inactive: -11.3%"}, {"smiles": "CN(C)C1(CNC(=O)c2ccc(Cl)c(S(N)(=O)=O)c2)CCCCC1", "inhibition": "inactive: -5.22%"}, {"smiles": "O=P(Nc1ccccn1)(c1ccc(Br)cc1)c1ccc(Br)cc1", "inhibition": "inactive: -1.08%"}, {"smiles": "Nc1ccc(CCCCOc2ccccc2)cc1", "inhibition": "inactive: -20.5%"}, {"smiles": "COc1ccc(N)c([N+](=O)[O-])c1[N+](=O)[O-]", "inhibition": "inactive: -0.88%"}, {"smiles": "Cc1ccccc1OP(=O)(Nc1ccccn1)Oc1ccccc1C", "inhibition": "inactive: -9.14%"}, {"smiles": "CC(NC(=O)COC(=O)C(O)(c1ccccc1)c1ccccc1)c1ccccc1", "note": "(stereo unspecified)", "inhibition": "inactive: 1.87%"}, {"smiles": "CN(C)C(=O)Oc1noc2ccccc12", "inhibition": "inactive: 8.81%"}, {"smiles": "O=c1c2cc([N+](=O)[O-])ccc2[nH]c2c([N+](=O)[O-])cc([N+](=O)[O-])cc12", "inhibition": "inactive: 12.2%"}, {"smiles": "O=C(OC1CN2CCC1CC2)c1ccccc1", "note": "(stereo unspecified)", "inhibition": "inactive: -17.5%"}, {"smiles": "CCC(=O)N1C2C3N(C(=O)CC)C1C1N(C(=O)CC)C(C(N1C(=O)CC)N3C(=O)CC)N2C(=O)CC", "inhibition": "inactive: 11.8%"}, {"smiles": "COC(=O)c1cc2c(s1)N=C(c1ccccc1)N(C)P2(=O)N1CCOCC1", "note": "(stereo unspecified)", "inhibition": "inactive: -0.55%"}, {"smiles": "Cc1ccc(OP(=O)(Nc2ccccn2)Oc2ccc(C)cc2)cc1", "inhibition": "inactive: -12.1%"}, {"smiles": "CC(=O)NC(SC(=S)N(CC(C)C)CC(C)C)C(Cl)(Cl)Cl", "note": "(stereo unspecified)", "inhibition": "inactive: -13.1%"}, {"smiles": "O=P1(N(CCCl)CCCl)OCCC2CCCCN21", "note": "(stereo unspecified)", "inhibition": "inactive: -15.1%"}, {"smiles": "c1ccc(-c2nn[nH]n2)c(-c2nn[nH]n2)c1", "inhibition": "inactive: -0.83%"}, {"smiles": "Cc1ccc(NP(=O)(Oc2cccc(C)c2)Oc2cccc(C)c2)nc1", "inhibition": "inactive: -13.2%"}, {"smiles": "O=C(NC1CCS(=O)(=O)C1)NP(=S)(Oc1ccccc1)Oc1ccccc1", "note": "(stereo unspecified)", "inhibition": "inactive: 7.55%"}, {"smiles": "CCNC(=S)/N=C(\\N)N[N+](=O)[O-]", "inhibition": "inactive: 4.2%"}, {"smiles": "CC(=O)Nc1ccc([As](=O)(O)O)c(O)c1", "inhibition": "inactive: 12.9%"}, {"smiles": "CC(=O)Nc1ccc(Oc2c([N+](=O)[O-])cc([N+](=O)[O-])cc2[N+](=O)[O-])cc1", "inhibition": "inactive: 6.85%"}, {"smiles": "Cc1ccccc1CN(C)C(=O)COC(=O)C(O)(c1ccccc1)c1ccccc1", "inhibition": "inactive: 2.52%"}, {"smiles": "C[C@@H]1C=CCP(=O)(Oc2ccccc2)O1", "note": "(stereo partly specified)", "inhibition": "inactive: 5.17%"}, {"smiles": "C[C@H]1OP(=O)(Oc2ccccc2)C[C@@H]2O[C@@H]21", "note": "(stereo partly specified)", "inhibition": "inactive: -17.2%"}, {"smiles": "N#C/C(=C\\c1ccc(N(CCBr)CCBr)cc1)C(N)=O", "inhibition": "inactive: 11.9%"}, {"smiles": "CC(=O)c1ccc(N2CC2c2ccncc2)cc1", "note": "(stereo unspecified)", "inhibition": "inactive: -9.41%"}, {"smiles": "COC(=O)C1(C)COP(=O)(NCc2ccccc2)OC1", "note": "(stereo unspecified)", "inhibition": "inactive: 14.4%"}, {"smiles": "CC(C)(C)C(=O)NC(Sc1ccccc1)C(Cl)(Cl)Cl", "note": "(stereo unspecified)", "inhibition": "inactive: -13.4%"}, {"smiles": "CCc1cc(O)c([N+](=O)[O-])c(C)c1[N+](=O)[O-]", "inhibition": "inactive: -0.62%"}, {"smiles": "O=P1(Nc2nc3ccc(Cl)cc3s2)COc2ccccc2O1", "note": "(stereo unspecified)", "inhibition": "inactive: -42.5%"}, {"smiles": "CCOc1ccc(C2=NCC(CBr)S2)cc1", "note": "(stereo unspecified)", "inhibition": "inactive: -4.88%"}]}]}
